The numbers were not newly measured in US20160151380A1, “THERAPIES FOR DISEASES CAUSED BY ARTHROPOD-BORNE PARASITES” (THE REGENTS OF THE UNIVERSITY OF CALIFORNIA, priority 2013, published 2016), which cites them from elsewhere.

Protein sequences, listed by entry. Tags and fused reporters are not part of them.
UniProt Q16539, whole entry: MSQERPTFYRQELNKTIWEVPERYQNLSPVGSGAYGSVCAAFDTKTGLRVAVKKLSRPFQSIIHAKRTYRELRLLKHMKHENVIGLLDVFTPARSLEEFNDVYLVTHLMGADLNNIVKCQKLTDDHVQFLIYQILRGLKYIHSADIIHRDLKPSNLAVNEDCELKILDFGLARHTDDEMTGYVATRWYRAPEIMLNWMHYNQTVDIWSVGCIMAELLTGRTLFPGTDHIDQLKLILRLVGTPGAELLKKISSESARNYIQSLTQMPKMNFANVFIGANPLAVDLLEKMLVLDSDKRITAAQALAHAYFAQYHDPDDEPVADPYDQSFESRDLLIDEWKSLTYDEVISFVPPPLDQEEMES
UniProt Q02156, whole entry: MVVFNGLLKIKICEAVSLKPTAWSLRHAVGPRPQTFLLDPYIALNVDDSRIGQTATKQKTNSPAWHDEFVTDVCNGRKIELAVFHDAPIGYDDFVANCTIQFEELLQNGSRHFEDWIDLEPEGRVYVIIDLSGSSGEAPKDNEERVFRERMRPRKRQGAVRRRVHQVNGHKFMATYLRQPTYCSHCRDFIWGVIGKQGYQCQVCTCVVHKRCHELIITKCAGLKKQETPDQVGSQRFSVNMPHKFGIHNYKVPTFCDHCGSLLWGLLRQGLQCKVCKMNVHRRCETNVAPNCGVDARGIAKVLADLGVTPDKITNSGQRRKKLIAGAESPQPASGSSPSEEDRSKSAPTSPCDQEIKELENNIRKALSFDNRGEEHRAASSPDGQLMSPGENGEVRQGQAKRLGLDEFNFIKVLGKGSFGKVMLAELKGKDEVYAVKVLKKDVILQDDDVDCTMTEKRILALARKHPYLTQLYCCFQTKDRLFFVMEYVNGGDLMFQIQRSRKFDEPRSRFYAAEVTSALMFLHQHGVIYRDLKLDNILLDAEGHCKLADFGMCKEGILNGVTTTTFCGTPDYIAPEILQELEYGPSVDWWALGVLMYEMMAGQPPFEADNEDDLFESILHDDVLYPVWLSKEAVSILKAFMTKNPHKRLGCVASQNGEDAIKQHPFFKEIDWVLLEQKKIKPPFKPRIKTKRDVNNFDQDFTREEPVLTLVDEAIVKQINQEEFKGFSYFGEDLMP

The target in one data set is MAPK14 p38 (Homo sapiens, UniProt Q16539). As to conditions: cited from earlier work.
For the next data set, the target named is PKCepsilon (Homo sapiens, UniProt Q02156). As to conditions: cited from earlier work.

On to `Cc1ccc(NC(=O)c2cccc(C(F)(F)F)c2)cc1C(=O)Nc1cnc(Nc2ccc(N3CCN(C)CC3)cc2)nc1`, for which the half-inhibitory concentration (IC50) on MAPK14 p38 was 5 nM. On to `CN1C[C@@H]2Cn3c(c(C4=C(c5cn(C)c6ccccc56)C(=O)NC4=O)c4ccccc43)C[C@H]2C1`, for which, on PKCepsilon, the IC50 is 48 nM.

A word on the IC50: it is the midpoint of a concentration-inhibition curve.
